From PubChem BioAssay AID1222 (Sanford-Burnham Center for Chemical Genomics, 2008)
Only a part is listed here, and it is no random draw. Potency and affinity values are given separately. Calls of active or inactive are those of the source.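 The calls were made as follows: active = EC50 below 50 µM in the dose-response confirmation; inactive = the rest.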

Assay: rescue of cells from ER stress-induced death, primary screen, 384-well, CSM14.1, thapsigargin, ATP luminescence (AID 1222);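 also: death triggered by thapsigargin at about 15 µM added after 2 h compound pretreatment; cell ATP read after overnight thapsigargin exposure of roughly 18 to 22 hours; reference of the scale not given here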
Conditions: CSM14.1 thapsigargin-induced death rescue, at 20 µM, hits give high values

**Q.** For COP1(=S)c2c(C)nn(CCC#N)c2N=C(c2ccc(F)cc2)N1C (stereo unspecified), which cellular ATP content (survival) is on record?
**A.** inactive: -2.4%
